From US20250206721A1, “Prostaglandin Receptor EP2 Antagonists, Derivatives, and Uses Related Thereto” (Emory University, priority 2019, published 2025)

The chains behind the UniProt entries cited, without tags or fusion partners. Where a name states a change or a piece, a line headed by the entry shows the natural chain unless it says otherwise.
UniProt P43116: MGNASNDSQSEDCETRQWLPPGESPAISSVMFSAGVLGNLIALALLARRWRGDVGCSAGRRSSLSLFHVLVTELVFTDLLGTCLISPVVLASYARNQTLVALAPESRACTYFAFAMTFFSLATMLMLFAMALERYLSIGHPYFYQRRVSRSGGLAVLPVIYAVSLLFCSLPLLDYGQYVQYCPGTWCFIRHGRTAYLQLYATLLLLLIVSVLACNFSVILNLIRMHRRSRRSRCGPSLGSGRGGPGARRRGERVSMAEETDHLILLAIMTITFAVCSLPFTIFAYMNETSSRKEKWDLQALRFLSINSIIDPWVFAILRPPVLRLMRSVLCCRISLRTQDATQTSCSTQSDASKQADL

Assays:
[1] = mouse, microsomes
[2] = pH 7.4
human EP2 receptor = molecular target: T1, human EP2 receptor (Homo sapiens, UniProt P43116); assay: Cell-based cAMP TR-FRET assay, Schild KB on EP2
T1 construct: expressed in transfected cells

(E)-N-(2-(2-(trifluoromethyl)-1H-indol-1-yl)ethyl)-3-(3,4,5-trimethoxyphenyl)acrylamide [Compound 2a]
MLM T½ [1]: metabolized quickly
Aqueous Solubility [2]: 70 µM
Kb (human EP2 receptor): 28.6 nM
